One experiment concerns the target T1, KRas G13D (Homo sapiens, UniProt P01116, G13D).
T1 construct: Biotinylated KRas (corresponding to amino acids 1-169, produced at Accelegan Inc.); biotin (biotinylated); purchased Accelegan Inc
Put plainly: KRas binding assay (TR-FRET displacement). The settings on record: TR-FRET tracer displacement, 60-minute incubation at room temperature.

Chains of the proteins cited; added tags and fusions are not shown. Lines headed by an entry give the natural chain unless they say otherwise; changes in a name come on top.
UniProt P01116: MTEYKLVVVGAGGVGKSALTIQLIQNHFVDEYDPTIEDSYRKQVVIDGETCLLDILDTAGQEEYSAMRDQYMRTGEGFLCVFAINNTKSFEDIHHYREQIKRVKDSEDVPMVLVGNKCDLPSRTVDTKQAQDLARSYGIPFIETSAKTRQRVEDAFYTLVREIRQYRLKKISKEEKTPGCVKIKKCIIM

For a further experiment, the target named is T2, KRas Q61H (Homo sapiens, UniProt P01116, Q61H).
T2 construct: Biotinylated KRas (corresponding to amino acids 1-169, produced at Accelegan Inc.); biotin (biotinylated); purchased Accelegan Inc
Put plainly: KRas binding assay (TR-FRET displacement). The settings on record: TR-FRET tracer displacement, 60-minute incubation at room temperature.

One may read the IC50 as the concentration that gives 50% inhibition. The low end stands for inhibition by little substance, the high end for a need for much substance. In the case of `CCc1c(F)ccc2cc(O)cc(-c3ncc4c(N5CCC[C@@](C)(O)C5)nc(OC[C@]56CCCN5[C@H](COC(=O)N(C)C)CC6)nc4c3F)c12` [Example 313, ((3S,7aR)-7a-(((7-(8-ethyl-7-fluoro-3-hydroxynaphthalen-1-yl)-8-fluoro-4-((R)-3-hydroxy-3-methylpiperidin-1-yl)pyrido[4,3-d]pyrimidin-2-yl)oxy)methyl)hexahydro-1H-pyrrolizin-3-yl)methyl dimethylcarbamate], the IC50 at KRas G13D and at KRas Q61H was at most 2 nM throughout.

Values taken from patent publication US12398154B2, “Azaquinazoline pan-KRas inhibitors” (Mirati Therapeutics, Inc., priority 2020, dated 2025).
